The conditions of data set [1]: mouse, in vivo.
For data set [2], the target named is norepinephrine transporter (h) (Homo sapiens, UniProt P23975).

Chains of the proteins cited; added tags and fusions are not shown.
UniProt P23975, whole entry: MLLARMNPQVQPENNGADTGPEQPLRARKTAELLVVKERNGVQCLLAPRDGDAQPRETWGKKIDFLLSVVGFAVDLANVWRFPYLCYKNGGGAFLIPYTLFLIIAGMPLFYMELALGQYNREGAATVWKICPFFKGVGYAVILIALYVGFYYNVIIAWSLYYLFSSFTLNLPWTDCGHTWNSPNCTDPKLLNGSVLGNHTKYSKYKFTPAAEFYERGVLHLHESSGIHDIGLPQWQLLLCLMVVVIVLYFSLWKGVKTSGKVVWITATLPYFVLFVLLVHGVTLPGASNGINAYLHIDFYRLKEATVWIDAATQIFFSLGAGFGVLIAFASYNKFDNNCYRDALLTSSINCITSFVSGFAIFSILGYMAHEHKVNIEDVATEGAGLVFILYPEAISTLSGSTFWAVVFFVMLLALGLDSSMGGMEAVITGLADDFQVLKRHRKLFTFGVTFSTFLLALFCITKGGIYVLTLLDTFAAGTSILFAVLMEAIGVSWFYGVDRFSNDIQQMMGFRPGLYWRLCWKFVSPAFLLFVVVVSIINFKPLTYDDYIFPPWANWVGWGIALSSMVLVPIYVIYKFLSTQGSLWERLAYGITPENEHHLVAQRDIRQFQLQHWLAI

Structures are written as SMILES.

As to `Cn1cc(CCn2cnc(-c3cnn(C)c3)c2-c2ccc(C#N)cc2)cn1`, in the data set with CaCo-2 model, the “permeation in the CaCo-2 model” value is given as “permeation”. The clearance in data set [1] is recorded as ~50 % of mouse liver blood flow. Also, the F in data set [1] (5 mg/kg) turned out to be 0.70.
With `CNCCCC1c2ccccc2C=Cc2ccccc21` [protriptyline], in data set [2], the “nH Ref” value was 1.0.

The record behind these values is PMC4441536 (Journal of Medicinal Chemistry, 2015).
